Measured values reported in PubChem BioAssay (NCI).
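How tested: cells in 96-well plates exposed to compound for 48 hours at five concentrations. Here, GI50 denotes the concentration required for 50% inhibition of growth. TGI marks complete inhibition of growth.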

Columns and labels:
Assay in all cases: NCI tumour cell line growth inhibition, 48 h
786-0 renal = test system: 786-0 renal
A498 renal = test system: A498 renal
A549 NSCLC = test system: A549 NSCLC
ACHN renal = test system: ACHN renal
BT-549 breast = test system: BT-549 breast
CAKI-1 renal = test system: CAKI-1 renal
CCRF-CEM leukemia = test system: CCRF-CEM leukemia
COLO 205 colon = test system: COLO 205 colon
DU-145 prostate = test system: DU-145 prostate
EKVX NSCLC = test system: EKVX NSCLC
HCC-2998 colon = test system: HCC-2998 colon
HCT-116 colon = test system: HCT-116 colon
HCT-15 colon = test system: HCT-15 colon
HL-60(TB) leukemia = test system: HL-60(TB) leukemia
HOP-62 NSCLC = test system: HOP-62 NSCLC
HOP-92 NSCLC = test system: HOP-92 NSCLC
HS 578T breast = test system: HS 578T breast
HT29 colon = test system: HT29 colon
IGROV1 ovarian = test system: IGROV1 ovarian
K-562 leukemia = test system: K-562 leukemia
KM12 colon = test system: KM12 colon
LOX IMVI melanoma = test system: LOX IMVI melanoma
M14 melanoma = test system: M14 melanoma
MALME-3M melanoma = test system: MALME-3M melanoma
MCF7 breast = test system: MCF7 breast
MDA-MB-231 breast = test system: MDA-MB-231 breast
MDA-MB-435 = test system: MDA-MB-435
MDA-N = test system: MDA-N
NCI-H226 lung = test system: NCI-H226 lung
NCI-H23 lung = test system: NCI-H23 lung

Which GI50 (786-0 renal) does the source give for N#Cc1cc([N+](=O)[O-])cc([N+](=O)[O-])c1N here?
The GI50 was 17 µM.

And the TGI (786-0 renal)?
The TGI was 33.6 µM.

And the GI50 (A498 renal)?
The GI50 was over 100 µM.

And the TGI (A498 renal)?
Its TGI is over 100 µM.

What about the GI50 (A549 NSCLC) of the same compound?
The GI50 was 59.6 µM.

And the TGI (A549 NSCLC)?
The TGI was over 100 µM.

And the GI50 (ACHN renal)?
The GI50 was over 100 µM.

What about the TGI (ACHN renal) of the same compound?
Its TGI is over 100 µM.

And the GI50 (BT-549 breast)?
Its GI50 is 1670 nM.

What about the TGI (BT-549 breast) of the same compound?
The TGI was 3.37 µM.

What about the GI50 (CAKI-1 renal) of the same compound?
The GI50 was 14.5 µM.

And the TGI (CAKI-1 renal)?
Its TGI is 34.4 µM.

And the GI50 (CCRF-CEM leukemia)?
The GI50 was 25.3 µM.

And the TGI (CCRF-CEM leukemia)?
Its TGI is over 100 µM.

And the GI50 (COLO 205 colon)?
The GI50 was over 100 µM.

What about the TGI (COLO 205 colon) of the same compound?
The TGI was over 100 µM.

What about the GI50 (DU-145 prostate) of the same compound?
The GI50 was 19.2 µM.

And the TGI (DU-145 prostate)?
The TGI was 37.5 µM.

What about the GI50 (EKVX NSCLC) of the same compound?
The GI50 was 32.1 µM.

What about the TGI (EKVX NSCLC) of the same compound?
The TGI was 88.5 µM.

What about the GI50 (HCC-2998 colon) of the same compound?
The GI50 was over 100 µM.

And the TGI (HCC-2998 colon)?
The TGI was over 100 µM.

What about the GI50 (HCT-116 colon) of the same compound?
The GI50 was 45.4 µM.

What about the TGI (HCT-116 colon) of the same compound?
Its TGI is over 100 µM.

What about the GI50 (HCT-15 colon) of the same compound?
The GI50 was over 100 µM.

And the TGI (HCT-15 colon)?
Its TGI is over 100 µM.

And the GI50 (HL-60(TB) leukemia)?
The GI50 was over 100 µM.

What about the TGI (HL-60(TB) leukemia) of the same compound?
The TGI was over 100 µM.

What about the GI50 (HOP-62 NSCLC) of the same compound?
The GI50 was over 100 µM.

What about the TGI (HOP-62 NSCLC) of the same compound?
Its TGI is over 100 µM.

What about the GI50 (HOP-92 NSCLC) of the same compound?
Its GI50 is 30.1 µM.

And the TGI (HOP-92 NSCLC)?
Its TGI is 93.3 µM.

What about the GI50 (HS 578T breast) of the same compound?
The GI50 was 49.6 µM.

What about the TGI (HS 578T breast) of the same compound?
Its TGI is over 100 µM.

And the GI50 (HT29 colon)?
Its GI50 is over 100 µM.

And the TGI (HT29 colon)?
Its TGI is over 100 µM.

What about the GI50 (IGROV1 ovarian) of the same compound?
Its GI50 is 19 µM.

And the TGI (IGROV1 ovarian)?
Its TGI is 36.4 µM.

And the GI50 (K-562 leukemia)?
The GI50 was 29.5 µM.

And the TGI (K-562 leukemia)?
Its TGI is 89 µM.

What about the GI50 (KM12 colon) of the same compound?
Its GI50 is 18.7 µM.

And the TGI (KM12 colon)?
Its TGI is 39.8 µM.

What about the GI50 (LOX IMVI melanoma) of the same compound?
The GI50 was over 100 µM.

What about the TGI (LOX IMVI melanoma) of the same compound?
The TGI was over 100 µM.

And the GI50 (M14 melanoma)?
The GI50 was 51.1 µM.

What about the TGI (M14 melanoma) of the same compound?
Its TGI is over 100 µM.

What about the GI50 (MALME-3M melanoma) of the same compound?
Its GI50 is 11.3 µM.

What about the TGI (MALME-3M melanoma) of the same compound?
The TGI was 27.6 µM.

What about the GI50 (MCF7 breast) of the same compound?
Its GI50 is 31.2 µM.

And the TGI (MCF7 breast)?
The TGI was over 100 µM.

What about the GI50 (MDA-MB-231 breast) of the same compound?
The GI50 was over 100 µM.

What about the TGI (MDA-MB-231 breast) of the same compound?
The TGI was over 100 µM.

What about the GI50 (MDA-MB-435) of the same compound?
The GI50 was 12.8 µM.

What about the TGI (MDA-MB-435) of the same compound?
The TGI was 36.9 µM.

And the GI50 (MDA-N)?
Its GI50 is 16.5 µM.

What about the TGI (MDA-N) of the same compound?
The TGI was 36.2 µM.

And the GI50 (NCI-H226 lung)?
The GI50 was 76.7 µM.

What about the TGI (NCI-H226 lung) of the same compound?
The TGI was over 100 µM.

What about the GI50 (NCI-H23 lung) of the same compound?
Its GI50 is 81.5 µM.
